From the supplement of paper PMC11451515

Tests used:
P12-Ichikawa [1] = assay: AUC of viability dose-response curve (% viability x log10 dose units); higher = less sensitive; settings: 48 h
Summary of the method: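 Leukemia cells adapted to each medium were seeded at 500 or 1000 cells/well in 1536-well plates and dosed with library compounds in DMSO at 11 threefold doses from 47 μM to 0.79 nM for 48 h at 37°C. CellTiter-Glo One luminescence was normalised per plate to DMSO and cell-free wells, then fitted with a four-parameter log-logistic model over log10 doses. Area under the curve was taken from this fit by the trapezoidal rule, with curves above full viability scaled and curves failing quality control removed.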

NOMO1 = assay: cell viability relative to DMSO control; higher = less cytotoxic; settings: HPLM + 10% dialyzed FBS, 48 h
Summary of the method: (§1)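 Viability, reported as a per-plate percentage of DMSO wells with cell-free wells as background, came from CellTiter-Glo One luminescence. Reading took place after 48 h at 37°C. Before that, NOMO1 or SEM (500 cells/well) or P12-Ichikawa (1000 cells/well) leukemia cells, adapted for at least four passages in each medium, were seeded in 1536-well plates (5 μl) and pin-dosed with library compounds in DMSO, 47 μM to 0.79 nM over 11 threefold points.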

SEM cells = assay: as above; settings: 48 h
Summary of the method: as §1

P12-Ichikawa [2] = assay: as above; settings: HPLM + 10% dialyzed FBS, 48 h
Summary of the method: as §1

Which results are given for `NCc1ccc(OCCCc2sc(-c3ccc4c(c3)/C(=N/Nc3nc5ccccc5s3)CCC4)nc2C(=O)O)cc1`?
AUC of viability dose-response curve (P12-Ichikawa [1]; HPLM + 10% dialyzed FBS): 119; AUC of viability dose-response curve (P12-Ichikawa [1]; RPMI 5 mM glucose + 10% FBS): 187; AUC of viability dose-response curve (P12-Ichikawa [1]; RPMI 5 mM glucose + 10% dialyzed FBS): 144; cell viability (NOMO1; 0.000781 µM): 63.5%; cell viability (NOMO1; 0.00234 µM): 49.7%; cell viability (NOMO1; 0.00702 µM): 49%; cell viability (NOMO1; 0.0211 µM): 45.4%; cell viability (NOMO1; 0.0632 µM): 44%; cell viability (NOMO1; 0.19 µM): 52.2%; cell viability (NOMO1; 0.569 µM): 45.8%; cell viability (NOMO1; 1.71 µM): 60.9%; cell viability (NOMO1; 5.12 µM): 59.2%; cell viability (NOMO1; 15.4 µM): 53.4%; cell viability (NOMO1; 46.1 µM): 24.5%; cell viability (SEM cells; HPLM + 10% dialyzed FBS, 0.000781 µM): 118%; cell viability (SEM cells; HPLM + 10% dialyzed FBS, 0.00234 µM): 112%; cell viability (SEM cells; HPLM + 10% dialyzed FBS, 0.00702 µM): 90.7%; cell viability (SEM cells; HPLM + 10% dialyzed FBS, 0.0211 µM): 93.1%; cell viability (SEM cells; HPLM + 10% dialyzed FBS, 0.0632 µM): 24.9%; cell viability (SEM cells; HPLM + 10% dialyzed FBS, 0.19 µM): 27.4%; cell viability (SEM cells; HPLM + 10% dialyzed FBS, 0.569 µM): 25.2%; cell viability (SEM cells; HPLM + 10% dialyzed FBS, 1.71 µM): 28.1%; cell viability (SEM cells; HPLM + 10% dialyzed FBS, 5.12 µM): 23.6%; cell viability (SEM cells; HPLM + 10% dialyzed FBS, 15.4 µM): 21.6%; cell viability (SEM cells; HPLM + 10% dialyzed FBS, 46.1 µM): 7.64%; cell viability (SEM cells; RPMI 5 mM glucose + 10% FBS, 0.000781 µM): 77.4%; cell viability (SEM cells; RPMI 5 mM glucose + 10% FBS, 0.00234 µM): 43.3%; cell viability (SEM cells; RPMI 5 mM glucose + 10% FBS, 0.00702 µM): 38.1%; cell viability (SEM cells; RPMI 5 mM glucose + 10% FBS, 0.0211 µM): 26%; cell viability (SEM cells; RPMI 5 mM glucose + 10% FBS, 0.0632 µM): 24.9%; cell viability (SEM cells; RPMI 5 mM glucose + 10% FBS, 0.19 µM): 23.5%; cell viability (SEM cells; RPMI 5 mM glucose + 10% FBS, 0.569 µM): 26.4%; cell viability (SEM cells; RPMI 5 mM glucose + 10% FBS, 1.71 µM): 26.5%; cell viability (SEM cells; RPMI 5 mM glucose + 10% FBS, 5.12 µM): 18.6%; cell viability (SEM cells; RPMI 5 mM glucose + 10% FBS, 15.4 µM): 12.7%; cell viability (SEM cells; RPMI 5 mM glucose + 10% FBS, 46.1 µM): 6.57%; cell viability (SEM cells; RPMI 5 mM glucose + 10% dialyzed FBS, 0.000781 µM): 136%; cell viability (SEM cells; RPMI 5 mM glucose + 10% dialyzed FBS, 0.00234 µM): 102%; cell viability (SEM cells; RPMI 5 mM glucose + 10% dialyzed FBS, 0.00702 µM): 72.5%; cell viability (SEM cells; RPMI 5 mM glucose + 10% dialyzed FBS, 0.0211 µM): 52.3%; cell viability (SEM cells; RPMI 5 mM glucose + 10% dialyzed FBS, 0.0632 µM): 27.4%; cell viability (SEM cells; RPMI 5 mM glucose + 10% dialyzed FBS, 0.19 µM): 32.9%; cell viability (SEM cells; RPMI 5 mM glucose + 10% dialyzed FBS, 0.569 µM): 25%; cell viability (SEM cells; RPMI 5 mM glucose + 10% dialyzed FBS, 1.71 µM): 30.4%; cell viability (SEM cells; RPMI 5 mM glucose + 10% dialyzed FBS, 5.12 µM): 25.9%; cell viability (SEM cells; RPMI 5 mM glucose + 10% dialyzed FBS, 15.4 µM): 12.7%; cell viability (SEM cells; RPMI 5 mM glucose + 10% dialyzed FBS, 46.1 µM): 6.97%; cell viability (P12-Ichikawa [2]; 0.000781 µM): 128%; cell viability (P12-Ichikawa [2]; 0.00234 µM): 123%; cell viability (P12-Ichikawa [2]; 0.00702 µM): 38.8%; cell viability (P12-Ichikawa [2]; 0.0211 µM): 28.6%; cell viability (P12-Ichikawa [2]; 0.0632 µM): 21.7%; cell viability (P12-Ichikawa [2]; 0.19 µM): 12.3%; cell viability (P12-Ichikawa [2]; 0.569 µM): 9.61%; cell viability (P12-Ichikawa [2]; 1.71 µM): 9.66%; cell viability (P12-Ichikawa [2]; 5.12 µM): 8.6%; cell viability (P12-Ichikawa [2]; 15.4 µM): 7.58%; cell viability (P12-Ichikawa [2]; 46.1 µM): 6.2%
